{"source": "patent US20210268004A1", "about": "“COMPOSITION CONTAINING BECLOMETHASONE FOR THE PREVENTION AND THE TREATMENT OF BACTERIAL PROSTATITIS AND VAGINITIS” (SOFAR S.P.A., priority 2018, published 2021)", "system": "colorectal mucosa (epithelial tissue of the human colon reconstructed in 3D)", "method": "The trial was conducted according to the OCSE TG 428-EU approved method used for percutaneous penetration.\nLike in the first trial, the test was conducted at 37° C. and relative humidity >90%.\nLike in the first phase, the test was conducted at 37° C. and relative humidity >90%."}
{"substance": "beclomethasone acid [BMP]", "values": [{"measurement": "formation of the acid form BMP", "result": "very low amounts"}]}
